Laboratory results as given in publication PMC10979003, “Development and crystal structures of a potent second-generation dual degrader of BCL-2 and BCL-xL” (Nature Communications, 2024).

Protein sequences, listed by entry. Tags and fused reporters are not part of them. Residues count along the entry.
UniProt P10415, 1-207 F124L/G128R/E136A: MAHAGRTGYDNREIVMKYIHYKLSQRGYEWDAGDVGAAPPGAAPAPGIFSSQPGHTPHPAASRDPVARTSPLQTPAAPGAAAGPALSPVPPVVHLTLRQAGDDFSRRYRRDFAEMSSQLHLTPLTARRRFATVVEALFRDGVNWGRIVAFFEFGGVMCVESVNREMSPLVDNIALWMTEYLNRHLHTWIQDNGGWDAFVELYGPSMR

Biological target: T1, BCL-2 E136A/G128R/F124L (Homo sapiens, UniProt P10415, E136A/F124L/G128R)
T1 construct: BCL-xL (aa 2-212) and BCL-2 (aa 1-207) transformed cells were grown in LB broth; made in house; host or cells: E. coli BL21 (DE3) codon plus
Assay: AlphaScreen binary binding, BCL-2 E136A/G128R/F124L
Conditions: mean ± s.d., n=3
Method: To test the binary/ternary binding affinities of compounds to BCL-2/BCL-xL, AlphaScreen displacement binding assay was performed to test the capabilities of testing compounds to displace a Biotin-tagged Bim (Biotin-[…]) or Bad (Biotin-[…]) from BCL-2 or BCL-xL for BCL-2 and BCL-xL binding affinities, respectively. All reagents were diluted in assay buffer of 25 mM HEPES, pH 7.5, 150 mM NaCl, 0.1% BSA, and 0.005% tween 20 prior incubation. To a 96-well PCR plate (VWR, Cat. No. 82006-636) was added 10 μL Biotin-tagged Bim (15 nM for WT or 50 nM for mutants) or Bad (15 nM for WT or 50 nM for mutants), 10 μL series diluted compounds solution (2 or 3 or 4× dilution), and 10 μL self-made 6×His tagged BCL-2 WT or mutants (25 nM WT or 50 nM mutants) or 10 μL self-made BCL-xL WT and mutants (10 nM WT or 50 nM mutants). […] The luminescence signal was detected on a Biotek’s Synergy Neo2 multimode plate reader installed with an AphaScreen filter cube. The Ki values of each compounds were calculated by fitting data into the “Binding-competitive, One site-Fit Ki” function in GraphPad Prism (9.2.0) based on concentrations of Biotin–peptide used and experimentally determined Kd values of each 6×His protein &&&and Biotin–Peptide pair.

- Ki: 35.6 ± 6.9 nM
Compound: Cc1ncsc1-c1ccc(C(C)NC(=O)C2CC(O)CN2C(=O)C(NC(=O)CCCCCCC(=O)N2CCN(CC3(C)CCC(c4ccc(Cl)cc4)=C(CN4CCN(c5ccc(C(=O)NS(=O)(=O)c6ccc(NC(CCN7CCOCC7)CSc7ccccc7)c(S(=O)(=O)C(F)(F)F)c6)cc5)CC4)C3)CC2)C(C)(C)C)cc1 (stereo not shown) [753b]
